Measured values reported in patent US20240124424A1, “SOLID FORMS OF (5S)-CYCLOPROPYL-5-[3-[(3S)-4-(3,5-DIFLUOROPHENYL)-3-METHYL-PIPERAZIN-1-YL]-3-OXO-PROPYL]IMIDAZOLIDINE-2,4-DIONE” (Galapagos NV, priority 2020, published 2024).

Test system: mdx mice
Assay: Duchenne muscular dystrophy mdx model
Format: in vivo
Design: unit not given here
Settings: after treatment, mean; Cpd 1 120 mg/kg p.o. b.i.d., prednisolone 5 mg/kg p.o. qd
Text: The male mdx mice is the most used animal model for pre-clinical Duchenne muscular dystrophy (DMD) research.
Five-week-old mdx mice (Animal Resource Centre; Perth, WA, Australia) were allowed to acclimatise for 1 week to their surroundings, before being randomly allocated to one of four treatment groups or an untreated control group (15 animals per group) as described in the table below. At the start of the study, these groups were matched for mouse body weight.
The untreated control mdx mice were restrained throughout the study. Following 1-week acclimatisation, this group of mice also have baseline measurements of grip strength and body composition taken, which were repeated at ˜10 weeks and ˜15 weeks of age. Furthermore, these mice were weighed on a regular basis and their urine was collected at ˜6, ˜10 and ˜15 weeks of age. […]
Bone structure was evaluated via μCT analysis of cortical and trabecular bone on the femur.

In the case of `C[C@]12C=CC(=O)C=C1CC[C@@H]1[C@@H]2[C@@H](O)C[C@@]2(C)[C@H]1CC[C@]2(O)C(=O)CO` [prednisolone, reference compound], the Tissue volume is reported as 2.34.
